# Data: patent US20230381237A1, “CHIMERIC ANTIGEN RECEPTOR (CAR) T-CELL ADJUVANT THERAPIES” (priority 2022, published 2023)
# Assay: Phase 1 multiple ascending, repeat-dosing study in healthy volunteers
# Conditions: healthy volunteers (Phase 1a)
smiles,measurement,value
"CC#CC[C@H](C)[C@H](O)/C=C/[C@@H]1[C@H]2c3cccc(CCCC(=O)[O-])c3O[C@H]2C[C@H]1O.[Na+] [CTO1681, (+)-[1R, 2R, 3aS, 8bS]-2,3,3a,8b-tetrahydro-2-hydroxy-1-[(E)-(3S,4S)-3-hydroxy-4-methyl-1-octen-6-ynyl)-1Hcyclopenta[b]benzofuran-5-butanoic acid, monosodium salt]",Safety profile,tolerable safety profile
